Among the data in ChEMBL document CHEMBL4840338, “Cudraflavone C from Artocarpus hirsutus as a Promising Inhibitor of Pathogenic, Multidrug-Resistant S. aureus, Persisters, and Biofilms: A New Insight into a Rational Explanation of Traditional Wisdom” (J Nat Prod, 2021) are MIC values, retold here.

The test relates to Staphylococcus aureus. The conditions noted are these: ATCC 29213, time 16-18 hrs.

The sequence GENTAMICIN showed an MIC of 0.5 µg/mL.

For orientation: MIC means the least concentration at which growth counts as inhibited. High values mean a need for much substance, low ones inhibition by little substance.
